Ki data for one molecule are collected here from ChEMBL document CHEMBL3352167 (Bioorg Med Chem, 2015).

By UniProt entry, the sequences of proteins in these tests, tags left out.
UniProt Q61327, whole entry: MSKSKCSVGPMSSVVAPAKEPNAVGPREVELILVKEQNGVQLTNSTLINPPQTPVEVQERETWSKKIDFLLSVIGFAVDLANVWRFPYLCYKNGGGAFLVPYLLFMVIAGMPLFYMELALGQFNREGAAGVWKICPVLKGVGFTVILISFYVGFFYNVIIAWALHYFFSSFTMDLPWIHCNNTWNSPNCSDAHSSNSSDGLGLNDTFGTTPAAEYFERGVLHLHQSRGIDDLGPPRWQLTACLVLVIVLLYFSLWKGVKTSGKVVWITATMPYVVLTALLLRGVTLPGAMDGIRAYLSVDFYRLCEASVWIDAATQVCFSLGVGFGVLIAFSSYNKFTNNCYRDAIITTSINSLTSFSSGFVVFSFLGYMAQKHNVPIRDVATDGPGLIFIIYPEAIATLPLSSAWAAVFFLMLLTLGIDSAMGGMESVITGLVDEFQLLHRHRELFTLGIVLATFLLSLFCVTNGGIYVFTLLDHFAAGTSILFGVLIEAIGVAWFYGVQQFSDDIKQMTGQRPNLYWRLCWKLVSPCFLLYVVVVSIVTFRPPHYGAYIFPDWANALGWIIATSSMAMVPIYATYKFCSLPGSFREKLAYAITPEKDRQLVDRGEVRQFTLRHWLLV

The assay addresses Sodium-dependent dopamine transporter (Mus musculus, UniProt Q61327). Put plainly: Displacement of [3H]RTI-121 from mouse DAT in striatal membranes. The class given is cell membranes, Striatum, Membrane. For orientation: In a radioligand displacement assay an active substance lowers the binding of a labelled ligand.

As usually defined, the Ki is the equilibrium dissociation constant of an inhibitor or competing ligand from its target.

Turning to `Clc1ccc(CCN2CCN(CCCc3ccccc3)CC2)cc1Cl`, the affinity, expressed as Ki, was 8.2 µM.
